Data: PubChem BioAssay AID1527 (The Scripps Research Institute Molecular Screening Center, 2009)
Values joined by “and” are separate entries in the source; they are usually repeats but may differ in a detail not shown here. Equal values may be shown once. Only a part is listed here, and it is no random draw. Active and inactive are the calls of the source.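 How the source made its calls: active means inhibition above the mean of all tested compounds plus 3 SD, cutoff set per screening run (cut at about 7.5% in these data); inactive means the rest.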

These compounds were tested on VIM-2 metallo-beta-lactamase (Pseudomonas aeruginosa) (assay: inhibition of VIM-2 nitrocefin hydrolysis – biochemical, epi-absorbance readout, Pseudomonas aeruginosa enzyme, primary screen (AID 1527;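 further: red hydrolysis product quenches plate fluorescence so inhibitors raise well fluorescence; 0% = enzyme with DMSO and 100% = DMSO without enzyme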)). Settings: purified VIM-2, nitrocefin hydrolysis, epi-absorbance fluorescence; at 5.6 µM; stronger effect = higher value.

| SMILES | inhibition |
| --- | --- |
| Nc1cccc([As](=O)(O)c2ccccc2)c1 | inactive: -2.31% |
| O=[As](O)(c1cccs1)c1cccs1 | inactive: -0.39% |
| Cc1ccc(OCC(=O)OC2CN3CCC2CC3)cc1 (configuration not stated) | inactive: 0.45% |
| O=P1(Nc2ccc(Br)cn2)COc2ccccc2OC1 | inactive: -0.07% |
| O=P1(Nc2ncccn2)COc2ccccc2OC1 | inactive: -2.59% |
| CN(C)C1(CNC(=O)c2ccc(S(C)(=O)=O)cc2)CCCCC1 | inactive: 1.37% |
| O=C(/C=C/c1ccccc1)OC1CN2CCC1CC2 (configuration not stated) | inactive: -1.47% |
| Cc1nn(-c2ccccc2)c2c1P(=O)(N1CCOCC1)N(C)C(c1ccccc1)=N2 (configuration not stated) | inactive: -1.84% |
| CC1CCC(C(C)C)C(OP(=O)(Nc2ccccn2)c2ccccc2)C1 (configuration not stated) | inactive: -3.02% |
| Cc1ccc(C(=O)OC2CN3CCC2CC3)cc1 (configuration not stated) | inactive: -1.34% |
| CC(C)/C=N\N=C(\N)N[N+](=O)[O-] | inactive: -2.14% |
| CN(C(=O)Cc1ccc(Cl)c(Cl)c1)[C@@H]1CCCC[C@H]1N1CCCC1 | inactive: -0.55% |
| O=[As](O)(c1ccccc1Br)c1ccccc1Br | inactive: -0.13% |
| CC1(CBr)Cn2c(nc3ccccc3c2=O)S1 (configuration not stated) | inactive: 0.27% |
| Clc1n[nH]nc1-c1nn[nH][15n]1 | inactive: -3.72% |
| CC(C)(C)C(=O)NC(Sc1ncccn1)C(Cl)(Cl)Cl (configuration not stated) | inactive: -3.17% |
| O=P1(Nc2ccccn2)COc2ccccc2OC1 | inactive: -3.7% |
| CCC1=CC2Cc3nc4ccc(Cl)cc4c(N)c3C(C1)C2 (configuration not stated) | inactive: 3.01% |
| CCOP(=O)(NC(=NC(C)c1ccccc1)NC(C)c1ccccc1)OCC (configuration not stated) | inactive: -2.96% |
| CCOP(=O)(Nc1ccc(C)cn1)OCC | inactive: -0.98% |
| COc1cc(C2NCCC3(OCCO3)C2(C)C)cc(OC)c1OC (configuration not stated) | inactive: -3.82% |
| CCOP(=O)(Nc1cccc2ccccc12)OCC | inactive: -2.11% |
| Nc1cccc2c([As](=O)(O)O)cccc12 | active: 11% |
| Cc1ccc(NCCc2c([N+](=O)[O-])cc([N+](=O)[O-])cc2[N+](=O)[O-])cc1 | inactive: -1.17% |
| CCCOP(=S)(Nc1nc(N)cc(=O)[nH]1)OCCC | inactive: -1.97% |
| Cc1cccc(OCC(=O)OC2CN3CCC2CC3)c1 (configuration not stated) | inactive: -1.4% |

| SMILES | inhibition |
| --- | --- |
| O=[As](O)(c1cccc(O)c1)c1cccc(O)c1 | inactive: -1.83% |
| O=C(OC1CN2CCC1CC2)c1ccc(Cl)cc1 (configuration not stated) | inactive: -0.94% |
| O=[As](O)(O)c1cccnc1 | inactive: -0.93% |
| COc1cc(C(=O)NCC2(N3CCOCC3)CCCCC2)cc(Cl)c1OC(C)C | inactive: -1.73% |
| CS(=O)(=O)c1ccc(Cl)c(NC(=O)COC(=O)C(O)(c2ccccc2)c2ccccc2)c1 | inactive: 1.44% |
| CCOP1(=S)c2c(C)nn(CCC#N)c2N=C(c2ccc(F)cc2)N1C (configuration not stated) | inactive: 0.47% |
| O=[N+]([O-])c1ccc2c(c1)nnn2O | inactive: -2.38% |
| Nc1ccccc1[As](=O)(O)c1ccccc1 | inactive: -2.23% |
| O=C(O)COc1ccc([As](=O)(O)O)cc1[N+](=O)[O-] | inactive: -0.11% |
| CCOP1(=S)c2c(C)nn(CCC#N)c2N=C(c2ccccc2F)N1C (configuration not stated) | inactive: -2.04% |
| O=P(Nc1nccs1)(Oc1ccccc1)Oc1ccccc1 | inactive: -3.43% |
| O=P(Nc1nccs1)(c1ccccc1)c1nc2ccccc2s1 (configuration not stated) | active: 7.9% |
| CS(=O)(=O)c1cc([N+](=O)[O-])c2no[n+]([O-])c2c1 | inactive: -0.35% |
| CC(C)NC(=O)NP(=O)(Oc1ccccc1)Oc1ccccc1 | inactive: -2.22% |
| CCN(CC)C(=S)SC(NC=O)C(Cl)(Cl)Cl (configuration not stated) | inactive: -1.91% |
| O=[N+]([O-])c1cc([N+](=O)[O-])c(-c2ccn[nH]2)s1 | inactive: -2.29% |
| ClCCSc1nnc(-c2cccnc2)o1 | inactive: -1% |
| CC(C)c1ccc(OP(=O)(Nc2ccccn2)Oc2ccccc2F)cc1 (configuration not stated) | inactive: -1.76% |
| Cc1ccc(OP(=O)(Nc2ccc([N+](=O)[O-])cn2)Oc2ccc(C)cc2)cc1 | inactive: -2.11% |
| Cc1ccc2nc3c(c(C)c2c1)CC(C(Cl)Cl)S3 (configuration not stated) | inactive: 1.81% |
| O=[As](O)(c1ccc(O)cc1)c1ccccc1O | inactive: -0.27% |
| C[As](=O)(O)c1cccc(C(=O)O)c1 | inactive: 0.32% |
| COc1ccc(N/C(=N/P(=O)(N2CCOCC2)N2CCOCC2)N2CCOCC2)cc1 | inactive: -2.45% |
| COc1ccc2nc(NP(=O)(c3ccccc3)c3ccccc3)sc2c1 | inactive: -4.09% |
| COc1cc(I)ccc1[As](=O)(O)O | inactive: -1.47% |
| Cc1c2c(nc3ccccc13)SC(C(Cl)Cl)C2 (configuration not stated) | inactive: -0.34% |

| SMILES | inhibition |
| --- | --- |
| O=C(OC1CN2CCC1CC2)C12CC3CC(CC(C3)C1)C2 (configuration not stated) | inactive: -1.34% |
| Cc1cc(=O)[nH]c(N[N+](=O)[O-])n1 | inactive: -1.37% |
| CCC(C)N(CC(C)C)C(=S)SC(NC(C)=O)C(Cl)(Cl)Cl (configuration not stated) | inactive: -2.61% |
| O=C(OC1CN2CCC1CC2)c1cccc([N+](=O)[O-])c1 (configuration not stated) | inactive: 1.07% |
| CCOC(=O)c1ccc(NC(=O)C(C)(CCl)SC)cc1 (configuration not stated) | inactive: -3.4% |
| O=C(COc1ccccc1)OC1CN2CCC1CC2 (configuration not stated) | inactive: 0.98% |
| O=C(Nc1ccncc1[N+](=O)[O-])c1ccc([N+](=O)[O-])cc1[N+](=O)[O-] | inactive: 1.06% |
| COP1(=S)c2c(C)nn(CCC#N)c2N=C(c2ccc(F)cc2)N1C (configuration not stated) | inactive: -4.79% |
| O=P(Nc1ccccn1)(c1cccc2ccccc12)c1cccc2ccccc12 | inactive: -2.93% |
| Cc1cc(SC(NC=O)C(Cl)(Cl)Cl)ncn1 (configuration not stated) | inactive: -5.11% |
| O=[N+]([O-])c1ccc(Nc2ccc(Oc3ccc([N+](=O)[O-])cc3[N+](=O)[O-])cc2)c([N+](=O)[O-])c1 | inactive: -3.78% |
| CCOC(=O)Nc1cccc([As](=O)(O)O)c1 | inactive: -1.6% |
| CCCCOc1ccc(C(=O)NCC2(N3CCCCC3)CCCCC2)cc1OC | inactive: -1.72% |
| Cc1cc(SC(NC(=O)c2ccccc2)C(Cl)(Cl)Cl)nc(C(C)C)n1 (configuration not stated) | inactive: -2.72% |
| CCOC(=O)Nc1ccc([As](=O)(O)O)c(O)c1 | inactive: 0.5% |
| O=C(O)CNc1ccc([As](=O)(O)O)cc1 | inactive: -1% |
| O=[N+]([O-])c1cccc(NC2=NCC(CBr)S2)c1 (configuration not stated) | inactive: -3.34% |
| O=[N+]([O-])c1ncn(CCn2ncnc2[N+](=O)[O-])n1 | inactive: -1.55% |
| CC(C)(C)C(=O)NC(Sc1ccncn1)C(Cl)(Cl)Cl (configuration not stated) | inactive: -1.68% |
| O=C(Nc1cc([As](=O)(O)O)ccc1O)c1ccccc1 | inactive: -2.09% |
| CC1CCN(C(=O)Oc2c(Cl)cc(Cl)c3cccnc23)CC1 | inactive: 0.16% |
| CC(C)=N/N=C(\N)N[N+](=O)[O-] | inactive: 0.19% |
| CN(C)C(=O)OCCc1n(C)cc[n+]1C | inactive: -0.43% |
| CCN(/C(=N/P(=O)(N1CCOCC1)N1CCOCC1)N1CCOCC1)c1ccc(OC)cc1 | inactive: -0.5% |
| Nc1ccc([As](=O)(O)c2ccc(N)cc2)cc1 | inactive: 3.12% |
| C[N+]1=C2C=CC=CC=C2SC12C([N+](=O)[O-])=CC([N+](=O)[O-])=C[C-]2[N+](=O)[O-] (configuration not stated) | inactive: 6.54% |

| SMILES | inhibition |
| --- | --- |
| Cc1ccc(NP(=O)(Oc2ccccc2)Oc2ccccc2)nc1 | inactive: 1.31% |
| CCc1nc2c(n1)c1c(non1O)c1c2no[n+]1[O-] | inactive: -1.54% |
| O=[N+]([O-])c1cc([N+](=O)[O-])c(CCNc2ccccc2)c([N+](=O)[O-])c1 | inactive: -4.45% |
| O=[N+]([O-])c1cccc2n[nH]nc12 | inactive: -0.29% |
| CC(=O)N1C2C3N(C(C)=O)C1C1N(C(C)=O)C(C(N1C(C)=O)N3C(C)=O)N2C(C)=O | inactive: -3.89% |
| COc1ccc(C2=NCC(CBr)S2)cc1 (configuration not stated) | inactive: 0.41% |
| Oc1ccccc1CNc1ccccn1 | inactive: -1.34% |
| O=C(NC(Sc1ccncn1)C(Cl)(Cl)Cl)c1ccccc1 (configuration not stated) | inactive: -1.4% |
| Cc1c2non([O-])c-2c(C)[n+](=O)[n+]1[O-] | inactive: -2.96% |
| Nc1cc(N)c2nonc2c1[N+](=O)[O-] | inactive: -3.62% |
| CC(C)CC(=O)NC(Sc1ccc(Cl)cc1)C(Cl)(Cl)Cl (configuration not stated) | inactive: -1.51% |
| CN1CCCC(OC(=O)C(c2ccccc2)c2ccccc2)C1 (configuration not stated) | inactive: 1% |
| Clc1ccc(Cl)c(NC2=NCC(CBr)S2)c1 (configuration not stated) | inactive: -1.83% |
| COc1ccccc1OP(=O)(Nc1ccc(C)cn1)Oc1ccccc1OC | inactive: 1.76% |
| Cc1ccc(OP(=O)(Nc2nccs2)Oc2ccc(C)cc2)cc1 | inactive: -2.95% |
| Cc1ccc(N/C(=N/P(=O)(N2CCOCC2)N2CCOCC2)N2CCOCC2)cc1 | inactive: -0.55% |
| NC(=O)c1cc([N+](=O)[O-])cc([N+](=O)[O-])c1N | inactive: 2.05% |
| Nc1cccc2ccc([As](=O)(O)O)cc12 | inactive: -0.18% |
| CCN(N=Nc1nonc1N)c1nonc1N | inactive: -2.71% |
| O=[N+]([O-])c1cc([N+](=O)[O-])c(CCN2CCOCC2)c([N+](=O)[O-])c1 | inactive: 0.15% |
| Cc1cc(SC(NC(=O)c2ccc(F)cc2)C(Cl)(Cl)Cl)ncn1 (configuration not stated) | inactive: -3.04% |
| CCOP(=O)(Nc1ccccc1)OCC | inactive: -2.02% and inactive: -3.15% |
| Cc1ccc(NP(=O)(Oc2ccccc2F)Oc2ccccc2F)nc1 | inactive: -2.81% |
| O=P(Nc1nc2ccc(Cl)cc2s1)(c1ccccc1)c1ccccc1 | inactive: -3.11% |
